Where two headings read alike, the source gives them in different places.
Legend:
[1] = biological target: Human 5-HT2A (Homo sapiens, UniProt P28223); experiment: [125I]DOI radioligand binding, human 5-HT2A
[2] = biological target: rat 5-HT2B receptor (Rattus norvegicus, UniProt P30994); experiment: biochemical; type: binding; settings: [3H]Serotonin, 5-HT2B cells, AVG;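 further: displacement of [3H]5-HT from membranes of suspension cells carrying cloned rat 5-HT2B receptor, incubated 15 min at 37 °C or 2 h at 0 °C, filter-bound radioactivity counted by scintillation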
[3] = [125I]DOI, AVG, read-out: Ki Human 5-HT2A

Sequences of proteins named here, by UniProt entry; tags and fusion partners are left off.
UniProt P28223, whole entry: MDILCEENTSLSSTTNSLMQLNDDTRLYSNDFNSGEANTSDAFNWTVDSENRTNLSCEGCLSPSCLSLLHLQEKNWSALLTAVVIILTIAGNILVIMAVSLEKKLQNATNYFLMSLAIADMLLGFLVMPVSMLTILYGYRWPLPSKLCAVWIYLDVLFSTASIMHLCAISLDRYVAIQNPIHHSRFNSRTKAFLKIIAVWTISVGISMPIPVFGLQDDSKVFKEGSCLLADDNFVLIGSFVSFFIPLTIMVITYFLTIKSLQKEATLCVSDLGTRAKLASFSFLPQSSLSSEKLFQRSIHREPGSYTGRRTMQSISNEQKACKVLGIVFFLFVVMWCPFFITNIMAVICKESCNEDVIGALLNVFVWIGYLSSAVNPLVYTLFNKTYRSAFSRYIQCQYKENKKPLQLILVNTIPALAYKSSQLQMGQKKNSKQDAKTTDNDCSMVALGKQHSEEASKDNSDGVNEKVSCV
UniProt P30994, whole entry: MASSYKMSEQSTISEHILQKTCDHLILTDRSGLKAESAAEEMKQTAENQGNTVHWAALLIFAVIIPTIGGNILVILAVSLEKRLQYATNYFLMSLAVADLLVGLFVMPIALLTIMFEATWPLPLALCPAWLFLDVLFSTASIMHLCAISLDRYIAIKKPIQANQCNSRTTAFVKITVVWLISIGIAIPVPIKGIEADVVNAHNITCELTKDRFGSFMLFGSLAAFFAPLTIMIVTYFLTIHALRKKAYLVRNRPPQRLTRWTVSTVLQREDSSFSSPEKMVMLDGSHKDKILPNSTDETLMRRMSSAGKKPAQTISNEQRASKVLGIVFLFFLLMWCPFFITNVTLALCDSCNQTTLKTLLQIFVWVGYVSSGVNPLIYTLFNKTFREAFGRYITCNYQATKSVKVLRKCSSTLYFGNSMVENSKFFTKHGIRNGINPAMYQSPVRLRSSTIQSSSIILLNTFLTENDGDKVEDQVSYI

Work on CN1CC(C(=O)NC2CCCCC2)CC2c3cccc4[nH]cc(c34)CC21 (centres unmarked) yielded a Ki ([1]; Ki Human 5-HT2A) of 0.9 nM.

With CC(C)n1cc2c3c(cccc31)C1CC(C(=O)NC3CCCCC3)CN(C)C1C2 (centres unmarked) the Ki [1, 3] was 15.1 nM.

COc1ccc2[nH]cc(CCN)c2c1 gave a Ki ([2]; read-out: Ki Rat 5-HT2B) of 9.15 nM.

Compound COc1ccc2[nH]cc(CCN(C)C)c2c1 has a Ki ([2]; Ki Rat 5-HT2B) of 14.8 nM.

CN1CC(C(=O)NC2CCCC2O)CC2c3cccc4[nH]cc(c34)CC21 (centres unmarked) showed a Ki [1, 3] of 0.6 nM.
